# Cyclic peptide permeability, from CycPeptMPDB

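Conditions beyond the assay type are not listed; see the original paper. The list need not hold all peptides of the study. Entries at the database's floor value (log10 P of -10) are not listed.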

PAMPA is the parallel artificial membrane permeability assay, which has no cells and reads passive diffusion. Values are log10 P with P in cm/s, so -5 is more permeable than -7.

{"smiles": "CC(=O)N1CCC[C@H]1C(=O)N(C)[C@@H](CC(C)C)C(=O)N[C@@H]1C(=O)N[C@@H](CC(C)C)C(=O)N[C@@H](CC(C)C)C(=O)N[C@@H](CC(C)C)C(=O)N[C@@H](C)C(=O)N[C@@H](CC(C)C)C(=O)N2CCC[C@H]2C(=O)O[C@@H]1C", "PAMPA (log10 cm/s)": "-6.43"}
{"smiles": "CC(=O)N1CCC[C@@H]1C(=O)N(C)[C@H](CC(C)C)C(=O)N[C@@H]1C(=O)N[C@@H](CC(C)C)C(=O)N[C@H](CC(C)C)C(=O)N(C)[C@H](CC(C)C)C(=O)N(C)[C@@H](C)C(=O)N[C@H](CC(C)C)C(=O)N2CCC[C@H]2C(=O)O[C@@H]1C", "PAMPA (log10 cm/s)": "-5.99"}
{"smiles": "CC(=O)N1CCC[C@@H]1C(=O)N(C)[C@H](CC(C)C)C(=O)N[C@@H]1C(=O)N[C@@H](CC(C)C)C(=O)N[C@@H](CC(C)C)C(=O)N(C)[C@@H](CC(C)C)C(=O)N(C)[C@H](C)C(=O)N[C@H](CC(C)C)C(=O)N2CCC[C@@H]2C(=O)O[C@@H]1C", "PAMPA (log10 cm/s)": "-6.03"}
{"smiles": "CC(=O)N1CCC[C@H]1C(=O)N(C)[C@@H](CC(C)C)C(=O)N[C@@H]1C(=O)N[C@@H](CC(C)C)C(=O)N(C)[C@H](CC(C)C)C(=O)N[C@H](CC(C)C)C(=O)N(C)[C@H](C)C(=O)N[C@H](CC(C)C)C(=O)N2CCC[C@@H]2C(=O)O[C@@H]1C", "PAMPA (log10 cm/s)": "-6.43"}
{"smiles": "CC(=O)N1CCC[C@H]1C(=O)N(C)[C@@H](CC(C)C)C(=O)N[C@@H]1C(=O)N(C)[C@H](CC(C)C)C(=O)N(C)[C@H](CC(C)C)C(=O)N[C@@H](CC(C)C)C(=O)N(C)[C@H](C)C(=O)N[C@@H](CC(C)C)C(=O)N2CCC[C@@H]2C(=O)O[C@@H]1C", "PAMPA (log10 cm/s)": "-5.57"}
{"smiles": "CC(=O)N1CCC[C@@H]1C(=O)N(C)[C@H](CC(C)C)C(=O)N[C@@H]1C(=O)N(C)[C@H](CC(C)C)C(=O)N[C@@H](CC(C)C)C(=O)N[C@H](CC(C)C)C(=O)N[C@@H](C)C(=O)N[C@H](CC(C)C)C(=O)N2CCC[C@H]2C(=O)O[C@@H]1C", "PAMPA (log10 cm/s)": "-6.85"}
{"smiles": "CC(=O)N1CCC[C@@H]1C(=O)N(C)[C@H](CC(C)C)C(=O)N[C@@H]1C(=O)N[C@@H](CC(C)C)C(=O)N[C@H](CC(C)C)C(=O)N(C)[C@@H](CC(C)C)C(=O)N[C@@H](C)C(=O)N[C@H](CC(C)C)C(=O)N2CCC[C@H]2C(=O)O[C@@H]1C", "PAMPA (log10 cm/s)": "-6.12"}
{"smiles": "CC(=O)N1CCC[C@@H]1C(=O)N(C)[C@H](CC(C)C)C(=O)N[C@@H]1C(=O)N[C@@H](CC(C)C)C(=O)N(C)[C@@H](CC(C)C)C(=O)N(C)[C@H](CC(C)C)C(=O)N(C)[C@H](C)C(=O)N[C@H](CC(C)C)C(=O)N2CCC[C@H]2C(=O)O[C@@H]1C", "PAMPA (log10 cm/s)": "-5.83"}
{"smiles": "CC(=O)N1CCC[C@@H]1C(=O)N(C)[C@H](CC(C)C)C(=O)N[C@@H]1C(=O)N(C)[C@@H](CC(C)C)C(=O)N(C)[C@H](CC(C)C)C(=O)N(C)[C@H](CC(C)C)C(=O)N(C)[C@H](C)C(=O)N[C@H](CC(C)C)C(=O)N2CCC[C@H]2C(=O)O[C@@H]1C", "PAMPA (log10 cm/s)": "-5.15"}
{"smiles": "CC(=O)N1CCC[C@@H]1C(=O)N(C)[C@H](CC(C)C)C(=O)N[C@@H]1C(=O)N[C@H](CC(C)C)C(=O)N[C@@H](CC(C)C)C(=O)N(C)[C@@H](CC(C)C)C(=O)N(C)[C@H](C)C(=O)N[C@@H](CC(C)C)C(=O)N2CCC[C@H]2C(=O)O[C@@H]1C", "PAMPA (log10 cm/s)": "-5.69"}
{"smiles": "CC(=O)N1CCC[C@H]1C(=O)N(C)[C@@H](CC(C)C)C(=O)N[C@@H]1C(=O)N(C)[C@H](CC(C)C)C(=O)N[C@H](CC(C)C)C(=O)N(C)[C@@H](CC(C)C)C(=O)N(C)[C@@H](C)C(=O)N[C@H](CC(C)C)C(=O)N2CCC[C@H]2C(=O)O[C@@H]1C", "PAMPA (log10 cm/s)": "-5.49"}
{"smiles": "CC(=O)N1CCC[C@@H]1C(=O)N(C)[C@H](CC(C)C)C(=O)N[C@@H]1C(=O)N(C)[C@@H](CC(C)C)C(=O)N(C)[C@@H](CC(C)C)C(=O)N[C@@H](CC(C)C)C(=O)N(C)[C@@H](C)C(=O)N[C@H](CC(C)C)C(=O)N2CCC[C@@H]2C(=O)O[C@@H]1C", "PAMPA (log10 cm/s)": "-5.26"}
{"smiles": "CC(=O)N1CCC[C@H]1C(=O)N(C)[C@@H](CC(C)C)C(=O)N[C@@H]1C(=O)N[C@H](CC(C)C)C(=O)N[C@@H](CC(C)C)C(=O)N[C@H](CC(C)C)C(=O)N[C@@H](C)C(=O)N[C@H](CC(C)C)C(=O)N2CCC[C@H]2C(=O)O[C@@H]1C", "PAMPA (log10 cm/s)": "-6.67"}
{"smiles": "CC(=O)N1CCC[C@H]1C(=O)N(C)[C@@H](CC(C)C)C(=O)N[C@@H]1C(=O)N[C@@H](CC(C)C)C(=O)N[C@@H](CC(C)C)C(=O)N[C@H](CC(C)C)C(=O)N[C@@H](C)C(=O)N[C@H](CC(C)C)C(=O)N2CCC[C@@H]2C(=O)O[C@@H]1C", "PAMPA (log10 cm/s)": "-8.70"}
{"smiles": "CC(=O)N1CCC[C@H]1C(=O)N(C)[C@H](CC(C)C)C(=O)N[C@@H]1C(=O)N[C@H](CC(C)C)C(=O)N(C)[C@H](CC(C)C)C(=O)N(C)[C@H](CC(C)C)C(=O)N[C@H](C)C(=O)N[C@@H](CC(C)C)C(=O)N2CCC[C@H]2C(=O)O[C@@H]1C", "PAMPA (log10 cm/s)": "-5.18"}
{"smiles": "CC(=O)N1CCC[C@H]1C(=O)N(C)[C@H](CC(C)C)C(=O)N[C@@H]1C(=O)N[C@@H](CC(C)C)C(=O)N[C@@H](CC(C)C)C(=O)N[C@@H](CC(C)C)C(=O)N(C)[C@@H](C)C(=O)N[C@H](CC(C)C)C(=O)N2CCC[C@@H]2C(=O)O[C@@H]1C", "PAMPA (log10 cm/s)": "-6.29"}
{"smiles": "CC(=O)N1CCC[C@H]1C(=O)N(C)[C@H](CC(C)C)C(=O)N[C@@H]1C(=O)N[C@H](CC(C)C)C(=O)N[C@H](CC(C)C)C(=O)N(C)[C@H](CC(C)C)C(=O)N(C)[C@@H](C)C(=O)N[C@H](CC(C)C)C(=O)N2CCC[C@H]2C(=O)O[C@@H]1C", "PAMPA (log10 cm/s)": "-5.32"}
{"smiles": "CC(=O)N1CCC[C@@H]1C(=O)N(C)[C@H](CC(C)C)C(=O)N[C@@H]1C(=O)N(C)[C@H](CC(C)C)C(=O)N(C)[C@H](CC(C)C)C(=O)N[C@@H](CC(C)C)C(=O)N(C)[C@H](C)C(=O)N[C@@H](CC(C)C)C(=O)N2CCC[C@H]2C(=O)O[C@@H]1C", "PAMPA (log10 cm/s)": "-5.86"}
{"smiles": "CC(=O)N1CCC[C@@H]1C(=O)N(C)[C@H](CC(C)C)C(=O)N[C@@H]1C(=O)N[C@H](CC(C)C)C(=O)N[C@H](CC(C)C)C(=O)N(C)[C@H](CC(C)C)C(=O)N(C)[C@H](C)C(=O)N[C@H](CC(C)C)C(=O)N2CCC[C@@H]2C(=O)O[C@@H]1C", "PAMPA (log10 cm/s)": "-6.08"}
{"smiles": "CC(=O)N1CCC[C@H]1C(=O)N[C@@H]1C(=O)N[C@H](CC(C)C)C(=O)N[C@H](CC(C)C)C(=O)N(C)[C@H](CC(C)C)C(=O)N[C@H](CC(C)C)C(=O)N(C)[C@H](C)C(=O)N[C@@H](CC(C)C)C(=O)N2CCC[C@@H]2C(=O)O[C@@H]1C", "PAMPA (log10 cm/s)": "-5.49"}
{"smiles": "CC(=O)N1CCC[C@H]1C(=O)N[C@@H]1C(=O)N[C@H](CC(C)C)C(=O)N[C@H](CC(C)C)C(=O)N[C@@H](CC(C)C)C(=O)N[C@@H](CC(C)C)C(=O)N(C)[C@H](C)C(=O)N[C@@H](CC(C)C)C(=O)N2CCC[C@@H]2C(=O)O[C@@H]1C", "PAMPA (log10 cm/s)": "-6.76"}
{"smiles": "CC(=O)N1CCC[C@H]1C(=O)N(C)[C@@H](CC(C)C)C(=O)N[C@@H]1C(=O)N[C@H](CC(C)C)C(=O)N(C)[C@@H](CC(C)C)C(=O)N[C@@H](CC(C)C)C(=O)N(C)[C@@H](C)C(=O)N[C@@H](CC(C)C)C(=O)N2CCC[C@H]2C(=O)O[C@@H]1C", "PAMPA (log10 cm/s)": "-5.96"}

Repeated from above, the 2 entries with the highest PAMPA:

SMILES	PAMPA (log10 cm/s)
CC(=O)N1CCC[C@@H]1C(=O)N(C)[C@H](CC(C)C)C(=O)N[C@@H]1C(=O)N(C)[C@@H](CC(C)C)C(=O)N(C)[C@H](CC(C)C)C(=O)N(C)[C@H](CC(C)C)C(=O)N(C)[C@H](C)C(=O)N[C@H](CC(C)C)C(=O)N2CCC[C@H]2C(=O)O[C@@H]1C	-5.15
CC(=O)N1CCC[C@H]1C(=O)N(C)[C@H](CC(C)C)C(=O)N[C@@H]1C(=O)N[C@H](CC(C)C)C(=O)N(C)[C@H](CC(C)C)C(=O)N(C)[C@H](CC(C)C)C(=O)N[C@H](C)C(=O)N[C@@H](CC(C)C)C(=O)N2CCC[C@H]2C(=O)O[C@@H]1C	-5.18

Data: CycPeptMPDB; original report Kelly et al. 2021, doi:10.1021/jacs.0c06115.